For one compound, Ki results are on record in BindingDB's records for doi:10.1038/sj.bjp.0702201 (Smithkline Beecham Pharmaceuticals, 1998).

By UniProt entry, the sequences of proteins in these tests, tags left out.
UniProt P08172, whole entry: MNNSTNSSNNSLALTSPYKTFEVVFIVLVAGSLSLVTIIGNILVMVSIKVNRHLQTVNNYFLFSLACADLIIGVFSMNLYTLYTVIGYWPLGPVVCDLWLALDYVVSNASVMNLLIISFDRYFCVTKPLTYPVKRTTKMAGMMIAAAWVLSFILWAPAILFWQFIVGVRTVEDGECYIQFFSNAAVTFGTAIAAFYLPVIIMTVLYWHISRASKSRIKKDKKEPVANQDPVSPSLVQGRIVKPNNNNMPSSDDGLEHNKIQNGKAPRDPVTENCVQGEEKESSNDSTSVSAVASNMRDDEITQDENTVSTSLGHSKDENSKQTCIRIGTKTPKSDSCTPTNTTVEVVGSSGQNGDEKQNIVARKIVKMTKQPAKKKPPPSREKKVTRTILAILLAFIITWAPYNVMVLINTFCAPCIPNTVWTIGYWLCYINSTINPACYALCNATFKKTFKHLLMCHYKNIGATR

In this experiment the target is Muscarinic acetylcholine receptor M2 (Homo sapiens, UniProt P08172).

For orientation: Ki means the dissociation constant of the complex between target and ligand, obtained from inhibition or displacement. Compound `CCCCCCOc1nsnc1C1=CCCN(C)C1` registered a Ki of 126 nM.
